{"source": "patent US20250152536A1", "about": "“DELIVERY OF AN ANTIOXIDANT COMPOUND FOR TREATING SEIZURES, VIRAL INFECTIONS, EXPOSURE TO CHEMICAL WARFARE AGENTS, AND OTHER CONDITIONS” (published 2025)", "key": {"brain glutathione": {"tested_on": "brain glutathione", "experiment": "Intranasal NAC in healthy humans: brain GSH/Cr by MEGA PRESS MR Spectroscopy (Example 1)", "settings": "for GSH/Cr, Day 2, 1-hour post-NAC / GSH/Cr, Day 2, 2-hours post-NAC: Study Period 1, 1 ml each nostril, mucosal atomization device; for GSH/Cr, Day 2, 1-hour post-NAC: 1 hour after intranasal 20% solution; for GSH/Cr, Day 2, 2-hours post-NAC: 2 hours after intranasal 20% solution"}, "[1]": {"experiment": "PO NAC pharmacokinetics measured by taking blood samples (Example 3)"}, "[2]": {"experiment": "Safety and tolerability of intranasal NAC in healthy humans (Example 1)"}, "GSH levels in the brain": {"tested_on": "GSH levels in the brain", "experiment": "GSH levels with time after intranasal NAC in 3 healthy subjects (Example 2)"}}}
{"smiles": "CC(=O)N[C@@H](CS)C(=O)O", "values": [{"measurement": "GSH/Cr, Day 2, 1-hour post-NAC", "setting": "brain glutathione; person one", "result": 0.059}, {"measurement": "GSH/Cr, Day 2, 2-hours post-NAC", "setting": "brain glutathione; person one", "result": 0.052}, {"measurement": "GSH/Cr, Day 2, 1-hour post-NAC", "setting": "brain glutathione; person three", "result": 0.031}, {"measurement": "GSH/Cr, Day 2, 2-hours post-NAC", "setting": "brain glutathione; person three", "result": 0.048}, {"measurement": "GSH/Cr, Day 2, 1-hour post-NAC", "setting": "brain glutathione; person two", "result": 0.037}, {"measurement": "GSH/Cr, Day 2, 2-hours post-NAC", "setting": "brain glutathione; person two", "result": 0.035}, {"measurement": "time for which increased brain GSH/Cr levels are maintained", "setting": "brain glutathione; Study Period 2", "result": "at least 4 hrs"}, {"measurement": "brain GSH levels above baseline", "setting": "brain glutathione; at 4 hours, FIG. 8", "result": 35, "unit": "%"}, {"measurement": "time of peak in levels", "setting": "brain glutathione; combined across all subjects", "result": "1 to 2", "unit": "h"}, {"measurement": "brain GSH as measured by MR spectroscopy", "setting": "brain glutathione; whole study", "result": "statistically significant increase"}, {"measurement": "AUC0-10", "setting": "[1]", "result": 1220, "unit": "ng·h/mL"}, {"measurement": "Cmax", "setting": "[1]", "result": 598, "unit": "ng/mL"}, {"measurement": "Tmax", "setting": "[1]", "result": 40.2, "unit": "min"}, {"measurement": "adverse events", "setting": "[2]; 6 healthy subjects, intranasal", "result": "no adverse events were reported"}, {"measurement": "side-effects", "setting": "[2]; 6 healthy subjects, intranasal", "result": "No significant side-effects"}, {"measurement": "subjects reporting very mild transient nausea", "setting": "[2]; 6 subjects, intranasal", "result": 2}, {"measurement": "subjects voicing complaints about the NAC odor", "setting": "[2]; intranasal", "result": "5 of 6"}, {"measurement": "complaints of NAC fluid into the throat", "setting": "[2]; mucosal atomizer (Study Period 1)", "result": "all three subjects complained"}, {"measurement": "complaints of NAC fluid into the throat", "setting": "[2]; multi-dose pump (Study Period 2)", "result": "not found"}, {"measurement": "GSH levels", "setting": "GSH levels in the brain; 12 hours post-NAC administration", "result": "still significantly elevated"}, {"measurement": "GSH levels", "setting": "GSH levels in the brain; at 24 hours", "result": "return to baseline"}]}
